AlphaSeq binding of Ab-14 light chain variants to a spike HR2 peptide

The measurements come from Engelhart et al. 2022 (doi:10.1038/s41597-022-01779-4) through the FLAb antibody collection.

Antigen: PDVDLGDISGINAS, a 14-residue peptide of the SARS-CoV-2 spike HR2 region.

Each scFv is VH, three GGGGS repeats, VL, as in the parent Ab-14, and differs from it in the CDRs of the light chain only.
VH: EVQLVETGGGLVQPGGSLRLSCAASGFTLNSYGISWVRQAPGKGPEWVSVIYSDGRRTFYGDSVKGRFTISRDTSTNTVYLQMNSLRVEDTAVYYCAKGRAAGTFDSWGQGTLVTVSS
VL: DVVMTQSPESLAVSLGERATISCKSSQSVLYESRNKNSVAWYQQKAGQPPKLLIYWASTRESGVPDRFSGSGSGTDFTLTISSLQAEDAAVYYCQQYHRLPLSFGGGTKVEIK

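Phage display of a naive human antibody library on the peptide gave the parent. In library AAYL50, one, two or three CDR residues were substituted; doubles and triples were drawn at random. In AlphaSeq, yeast of one mating type display the scFv and yeast of the other type display the target. Mating (16 h, 30 °C) was followed by selection of diploids and sequencing of their barcodes. Scores were corrected for input abundance and mapped to Kd with protein pairs of known affinity run in the same pool. Each pool was mated in three replicate cultures.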

Variants are written as CDR1, CDR2 and CDR3 of the light chain (limits as in the source). Parent: KSSQSVLYESRNKNSVA, WASTRES, QQYHRLPLS.
Affinities are written as log10 Kd with Kd in nM; a lower number is a better binder.
The mean shown is taken over the replicates in which the pair was detected.
An entry "nd" has no value in the source: the pair was not observed among the diploids in that replicate. This suggests poor binding but is not conclusive.

For KSSQSVWYESRNKNSVA | WASTRES | QQYEELPLS, the assay gave 0.87, 0.92, 0.86 (mean 0.88; controls 1 of 9).
For KSSQSVNYESANKNSVE | WASTRES | QQYHRLPLS, the assay gave 3.96, nd, 3.22 (mean 3.59; controls 1 of 9).
For KSSQSVLYESRNKNSGM | WYSTRES | QQYHRLPLS, the assay gave 4.64, 4.84, nd (mean 4.74; controls 3 of 9).
For KSSQSVLYESRNINSVA | WASTRES | QQYERLPLS, the assay gave 2.35, 1.99, 2.34 (mean 2.23; controls 0 of 9).
For KSSQSRLYESRNKNSVA | CASTRES | QQYHGLPLS, the assay gave 2.46, 2.58, 3.62 (mean 2.88; controls 2 of 9).
For KQSFSVLYESRNKNSVA | WASTRES | QQYHRLMLS, the assay gave 1.34, 1.34, 1.43 (mean 1.37; controls 1 of 9).
For KSSQSVLYESRVKNSWA | WASCRES | QQYHRLPLS, the assay gave nd, 3.69, nd (controls 2 of 9).
For KSSQSVLYESRNKISVA | PASTRES | QQYERLPLS, the assay gave nd, 3.79, nd (controls 3 of 9).
For KKSQSVLYESRNKNSVA | WASTRES | QQYHRLPCS, the assay gave nd, nd, nd (controls 5 of 9).
For KGSQSVLYEQRNKNSVA | WASTLES | QQYHRLPLS, the assay gave 2.47, 2.05, 1.80 (mean 2.11; controls 1 of 9).
For KSSQSVLYESRNKNSIA | WASTREG | VQYHRLPLS, the assay gave 1.43, 1.40, 1.67 (mean 1.50; controls 0 of 9).
For KSSQSVLAESANKNSVA | WASTRES | QQYHRPPLS, the assay gave 1.00, 1.24, 1.15 (mean 1.13; controls 1 of 9).
For KSSQSVLYESRNKNSVA | WAQTREF | WQYHRLPLS, the assay gave nd, nd, nd (controls 0 of 9).
For KSSQRLLYESRNKNSVA | WASTRES | QQYHRLPQS, the assay gave nd, nd, nd (controls 0 of 9).
For KSSQSVLYEVRNKRSVA | WASTRGS | QQYHRLPLS, the assay gave nd, nd, nd (controls 0 of 9).
For KSSQSVLYECRNKNSVA | WASTRES | AQYHRLPLS, the assay gave nd, 3.09, 4.32 (mean 3.71; controls 2 of 9).
For KFSQSVLYESRNKNSVA | WASFREM | QQYHRLPLS, the assay gave 1.22, 1.24, 1.30 (mean 1.25; controls 1 of 9).
For KSSQSVLYESRGKRSGA | WASTRES | QQYHRLPLS, the assay gave nd, nd, nd (controls 0 of 9).
For KSSQSVLYESRMKNSVA | WASTCES | QQYDRLPLS, the assay gave nd, nd, nd (controls 0 of 9).
For KSSQSVLYESRNKNSVA | WASMRES | QWYHRHPLS, the assay gave 1.50, 1.44, 1.51 (mean 1.48; controls 5 of 9).
For KSSQMVLYESINKNSVA | WASTRES | QQYHALPLS, the assay gave 1.44, 1.44, 1.50 (mean 1.46; controls 3 of 9).
For KSSQSVLYESRNMNSVA | WASTRES | QQMSRLPLS, the assay gave 1.49, 1.53, 1.37 (mean 1.46; controls 0 of 9).
For KSSQSVLYESRNKNEVS | WAKTRES | QQYHRLPLS, the assay gave 3.71, 5.20, nd (mean 4.45; controls 3 of 9).
For KSSQSVLKESRNKNSVA | WASTRES | QQYTRTPLS, the assay gave nd, nd, 3.80 (controls 0 of 9).
For KSSQSVLYESRNINRVA | WASTRDS | QQYHRLPLS, the assay gave 4.01, 3.49, 4.79 (mean 4.10; controls 3 of 9).
For KPSQSVLYESREMNSVA | WASTRES | QQYHRLPLS, the assay gave 0.99, 1.67, 1.37 (mean 1.34; controls 0 of 9).
For KSSQSVLYESRNKNSEA | WASHRES | QQCHRLPLS, the assay gave nd, nd, nd (controls 1 of 9).
For KSSQSVLYESENKNSVA | WASTRES | AQYHRTPLS, the assay gave 0.14, 0.40, 0.28 (mean 0.27; controls 2 of 9).
For KSSQSVLYESRNKNSVA | WDKTRES | QPYHRLPLS, the assay gave nd, nd, nd (controls 0 of 9).
For KSSQSVLYEWRNKNSVA | WASTKES | WQYHRLPLS, the assay gave nd, nd, 4.33 (controls 1 of 9).
For KSSPSVLYESRNKNSVP | WASTRES | QQYHRLYLS, the assay gave nd, nd, nd (controls 0 of 9).
For KSSQSVLYESRNKNSVA | WSSTRES | QQWHRLVLS, the assay gave nd, nd, nd (controls 1 of 9).
For KSSQSGLYESRNKNSVA | WAHTRES | QQWHRLPLS, the assay gave 2.21, 1.80, 2.24 (mean 2.08; controls 0 of 9).
For WSSQSVLYKSRNKNSVA | WASTRES | QQYHRLTLS, the assay gave 2.59, 3.69, 2.06 (mean 2.78; controls 2 of 9).
For WNSQSVLYESRNKNSVA | WASTRES | QQEHRLPLS, the assay gave nd, 3.70, nd (controls 4 of 9).
For KDSQSVLYESRNKNSVA | QASTRES | QQYHRRPLS, the assay gave 4.73, nd, nd (controls 3 of 9).
For KSSQSVLYESWVKNSVA | LASTRES | QQYHRLPLS, the assay gave 1.66, 1.84, 2.05 (mean 1.85; controls 0 of 9).
For KMSWSVLYESRNKNSVA | WASTRES | QQYVRLPLS, the assay gave 0.08, 0.34, 0.20 (mean 0.21; controls 1 of 9).
For KASQSVLYESRGKNSVA | WASTRES | QQYHRLPLS, the assay gave 0.73, 0.81, 0.89 (mean 0.81; controls 3 of 9).
For KSSQSVLVESRNKNSVA | MASTRES | QQYHRLPLS, the assay gave 0.24, 0.59, 0.56 (mean 0.46; controls 1 of 9).
For KSSQSVQYESRNKNSVA | IAQTRES | QQYHRLPLS, the assay gave nd, nd, nd (controls 0 of 9).
For KSSASVLYESRNKNSVA | WASTRES | PVYHRLPLS, the assay gave nd, 4.28, nd (controls 2 of 9).
For RSSQSLLYWSRNKNSVA | WASTRES | QQYHRLPLS, the assay gave 1.07, 1.09, 1.12 (mean 1.10; controls 7 of 9).
For KSSQSVLYESRNKNSVA | QASTRWS | QQGHRLPLS, the assay gave 6.14, 4.29, nd (mean 5.21; controls 5 of 9).
For KSLQSVLYESRNVNSVA | IASTRES | QQYHRLPLS, the assay gave 6.28, 4.11, nd (mean 5.19; controls 5 of 9).
For KSRQSVLYESLNKNSVA | WASTRES | QQYHRLPLS, the assay gave 4.83, nd, nd (controls 1 of 9).
For KSSISVLYESRNKNSVA | WASTREP | QWYHRLPLS, the assay gave 3.51, 3.77, nd (mean 3.64; controls 7 of 9).
For KSSQSVLYESRNKNSVP | WASKMES | QQYHRLPLS, the assay gave nd, nd, 4.25 (controls 0 of 9).
For KSSQSVLYECMNKNSVA | WASTREM | QQYHRLPLS, the assay gave 3.31, 2.95, 3.38 (mean 3.21; controls 1 of 9).

Parent in this assay: reference entry 0.65, copy in this library 1.68.
As a blank, each scFv also met three strains without target: over library AAYL50, 18% of these pairings were detected, typically at 4.19 and seldom below 2.99. Also given: how often the same scFv was detected with the empty control strains.